Test results: patent US12545653B2, “Compound as PPAR agonist and application thereof” (USA Elixiria Biotech Inc., priority 2019, dated 2026)

Protein sequences, listed by entry. Tags and fused reporters are not part of them.
UniProt P37231, whole entry: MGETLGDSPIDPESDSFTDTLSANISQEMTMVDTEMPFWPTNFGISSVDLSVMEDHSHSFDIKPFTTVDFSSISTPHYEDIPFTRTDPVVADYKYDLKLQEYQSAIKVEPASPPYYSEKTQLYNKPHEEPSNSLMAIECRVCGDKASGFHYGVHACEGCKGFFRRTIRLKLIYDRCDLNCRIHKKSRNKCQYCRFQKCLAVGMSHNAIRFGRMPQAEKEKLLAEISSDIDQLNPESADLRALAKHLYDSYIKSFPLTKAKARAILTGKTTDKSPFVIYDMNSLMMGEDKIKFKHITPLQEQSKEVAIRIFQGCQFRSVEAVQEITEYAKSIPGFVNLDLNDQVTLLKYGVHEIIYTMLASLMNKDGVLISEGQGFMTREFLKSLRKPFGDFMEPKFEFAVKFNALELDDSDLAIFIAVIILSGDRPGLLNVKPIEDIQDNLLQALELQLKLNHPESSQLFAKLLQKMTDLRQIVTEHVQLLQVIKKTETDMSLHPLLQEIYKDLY

Legend:
PPARγ = PPARγ (Homo sapiens, UniProt P37231); assay: In vitro transcriptional activity of PPARγ gene (PPRE-luciferase reporter, HEK 293 T cells); assay type: cell-based; details: read-out: EC50 of PPARγ gene activation; HEK 293 T cells transfected with PPARγ expression and PPRE-luc plasmids, 21 hours
klotho gene = assay: In vivo brain transcriptional activity of klotho gene (RT-PCR of brain mRNA); design: species or system mouse; details: 10 mg/kg body weight/day tail vein, after 10 days of continuous injection

In the case of `CCc1ccc(CCCC/C=C/c2ccc3c(c2)C(=O)CC3)cc1`, the EC50 (PPARγ) is reported as 5.8 µM and the “mRNA level of klotho gene in the brain of the mouse relative to vehicle control group” value (klotho gene) is reported as “more than twice”.
